Laboratory results taken from US20240400547A1, “2,6-PIPERIDINEDIONE COMPOUND AND APPLICATION THEREOF” (MEDSHINE DISCOVERY INC., priority 2021, published 2024).

Legend:
[1] = system: human B-cell lymphoma OCI-LY10 cells; assay: In vivo efficacy in SCID mouse xenograft model of human B-cell lymphoma OCI-LY10 cells; parameters: species or system SCID mice; conditions: average, SEM in next grid line
Description: The study evaluates the antitumor effect of the test compounds using a SID mouse xenograft model of human B-cell lymphoma OCI-LY10 cells.
• 1. Experimental animals: SCID mice, female, 6 to 8 weeks old, weighing 17 to 20 g. Beijing Vital River Laboratory Animal Technology Co., Ltd. • 2. Cell line: The human B-cell lymphoma OCI-LY10 cell line was purchased from Nanjing Cobioer Biosciences Co. Ltd (Cat. No CBP60558).
OCI-LY10 cells were cultured in IMDM medium containing 20% FBS and maintained in a 37° C. incubator with 5% CO2 and saturated humidity. Log phase OCI-LY10 cells were collected, resuspended in IMDM basic medium, and mixed 1:1 with Matrigel. The cell concentration was adjusted to 4×10^7/mL. Under sterile conditions, 0.1 mL of the cell suspension was inoculated subcutaneously into the right flank of SCID mice, with an inoculation concentration of 4×10^6/0.1 mL/mouse.
For the pharmacological experiment, once the tumors reached a certain size, animals with tumors that were either too large, too small, or irregularly shaped were eliminated. Animals with tumor volumes between 167.65 and 231.29 mm^3 were selected. Based on tumor volume, the animals were divided into groups using a random grouping method, with each group consisting of six mice, and the average tumor volume was approximately 201.15 mm^3. […] During the experiment, the body weight and tumor size of the animals were measured twice a week. Clinical symptoms were observed and recorded daily.
The test compounds were administered at doses of 10 mg/kg, 30 mg/kg, and 100 mg/kg, with a solvent composition of 10% DMSO/10% Solutol/80% H2O. The formula for calculating tumor volume (TV) was: 1/2×a×b^2, where a and b were the measured length and width of the tumor, respectively. […] According to the results of tumor measurement, the relative tumor volume (RTV) was calculated, and the calculation formula was RTV=Vt/V0, where V0 was the tumor volume measured at the time of group administration (i.e. Day 0), VT was the tumor volume at a certain measurement, and TRTV and CRTV were taken from the same day's data. […]

[2] = system: human lymphoma SU-DHL-2 cells; assay: In vivo efficacy in CB17 SCID mouse model with subcutaneous xenograft tumors of human lymphoma SU-DHL-2 cells; parameters: species or system CB17 SCID mice
Description: The study evaluates the antitumor effect of the test compounds using a CB17 SCID mouse model with subcutaneous xenograft tumors of SU-DHL-2 human lymphoma cells.
• 1. Experimental animals: CB17 SCID mice, female, 6 to 8 weeks old, weighing 18 to 22 g. Beijing Vital River Laboratory Animal Technology Co., Ltd. • 2. Cell line: human lymphoma SU-DHL-2 cells (Cat. No ATCC-CRL-2956).
Cell culture: Human lymphoma SU-DHL-2 cells (ATCC-CRL-2956) were cultured in suspension in vitro. The culture conditions were RPMI 1640 medium with […] fetal bovine serum, 100 U/mL penicillin and 100 μg/mL streptomycin, and cultured in a 37° C., […] incubator. Routine passaging was performed twice a week. When the cell saturation reached […] and the quantity met the requirements, the cells were collected, counted, and seeded.
Tumor cell seeding and grouping: 0.2 mL (10×10^6 cells) of SU-DHL-2 cells, in a PBS:Matrigel=1:1 mixture, were subcutaneously inoculated into the right dorsal flank of each mouse. […] The day of grouping was recorded as Day 0, and dosing began according to the body weight of the animals.
The pharmacological experiment consisted of a dosing cycle of seven days, with medication administered once daily at a 24-hour interval. […] During the experiment, the body weight and tumor size of the animals were measured twice a week, and clinical symptoms were observed and recorded daily.
The dosing for the test compounds were 10 mg/kg, 30 mg/kg, and 100 mg/kg, with a solvent composition of 10% DMSO/10% Solutol/80% water. The formula for calculating tumor volume (TV) was: 1/2×a×b^2, where a and b were the measured length and width of the tumor, respectively. […] According to the results of tumor measurement, the relative tumor volume (RTV) was calculated, and the calculation formula was RTV=Vt/V0, where V0 was the tumor volume measured at the time of group administration (i.e. Day 0), VT was the tumor volume at a certain measurement, and TRTV and CRTV were taken from the same day's data. […]

Structure (SMILES): O=C1CCC(c2noc3ccc4c(NC(=O)CN5CCN(C[C@H]6CC[C@H](n7cc(NC(=O)c8coc(-c9ccnc(NCC%10CC%10)c9)n8)c(C(F)F)n7)CC6)CC5)cccc4c23)C(=O)N1 (stereo partly drawn) [Hydrochloride of WX014]
- Relative tumor volume (Day 28) ([1]; 10 mg/kg intragastric once a day): 3.37
- Relative tumor volume (Day 28) ([1]; 30 mg/kg intragastric once a day): 1.64
- Relative tumor volume (Day 28) ([1]; 100 mg/kg intragastric once a day): 0.91
- Relative tumor volume (on day 21) ([2]; 10 mg/kg intragastric once daily): 5.79
- Relative tumor volume (on day 21) ([2]; 30 mg/kg intragastric once daily): 5.78
- Relative tumor volume (on day 21) ([2]; 100 mg/kg intragastric once daily): 4.55

Where a name gives a salt, the structure may show the parent alone.
